These results are taken from patent US6703391B2, “Quinoxalinedione derivatives, their preparation and use” (Neurosearch A/S, priority 1992, dated 2004).

For one assay, the target named is AMPA receptor. As to the kind of experiment: Inhibition of [3H] AMPA binding to cortical membranes from rat brain. To be noted: read-out: IC50 (μM) [3H] AMPA, inhibition of [3H] ligand binding.
Assay [1] has as its target [3H] KA binding site (kainate receptor). As to the kind of experiment: Inhibition of [3H] KA binding to cortical membranes from rat brain. Conditions: inhibition of [3H] ligand binding.
For a further assay, the target named is [3H] GLY binding site (Rattus norvegicus, UniProt P35439). The assay is described as follows: Inhibition of [3H] GLY binding to cortical membranes from rat brain. To be noted: read-out: IC50 (μM) [3H] GLY, inhibition of [3H] ligand binding.

For `CN1Cc2c(Br)cc3c([nH]c(=O)c(=O)n3O)c2C1`, the values for the IC50 (at AMPA receptor; in assay [3H] GLY binding site) were 0.94 µM and 3.3 µM, respectively. In assay [1], the “IC50 (μM) [3H] KA” value was 13 µM.
